## Antibody variant affinities, Ab-14 light chain, assay 1

Antigen: PDVDLGDISGINAS, a 14-residue peptide of the SARS-CoV-2 spike HR2 region.

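Phage display of a naive human antibody library on the peptide gave the parent. Variants in AAYL50 differ from the parent at up to three CDR positions; double and triple changes were sampled at random. The assay is AlphaSeq: two haploid yeast populations carry antibody and antigen on their surface. Pairs that bind mate more often; barcode pairs of the diploids are counted by sequencing. The ratio of observed to expected reads was calibrated, replicate by replicate, on BCL2-family standards whose Kd was known from biolayer interferometry. There are three technical replicates.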

Ab-14 is the parent antibody, in scFv form: VH, then a 15-residue (Gly4Ser)3 linker, then VL. The heavy chain is unchanged in all variants.
VH: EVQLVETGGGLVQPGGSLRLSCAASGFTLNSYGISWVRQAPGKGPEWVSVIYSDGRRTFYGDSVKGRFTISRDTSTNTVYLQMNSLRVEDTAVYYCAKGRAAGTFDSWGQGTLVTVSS
VL: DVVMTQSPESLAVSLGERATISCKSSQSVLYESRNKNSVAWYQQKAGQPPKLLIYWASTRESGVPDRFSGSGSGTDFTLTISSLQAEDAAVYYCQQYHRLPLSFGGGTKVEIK

Changes read parent residue, position, new residue, counted from the first residue of the VL shown. Values are log10 of the apparent Kd in nM; lower means stronger binding. The mean shown is taken over the replicates in which the pair was detected. An entry "ND" has no value in the source: the pair was not observed among the diploids in that replicate. This suggests poor binding but is not conclusive. Parent in this assay: reference entry 0.65, copy in this library 1.68.

| changes | log10 Kd, replicates | log10 Kd (nM), mean | empty controls |
|---|---|---|---|
| V29N/S38P/R99F | ND 4.54 6.21 | 5.37 | 3/9 (4.27) |
| L30R/A40D/L100A | ND ND ND | ND | 0/9 |
| L30W/W56A | 0.66 0.87 0.79 | 0.77 | 4/9 (4.44) |
| S28H/E32V/N37K | ND ND 3.56 | 3.56 | 1/9 (3.23) |
| K24F/T59A | 4.25 3.35 5.79 | 4.46 | 4/9 (4.37) |
| Y97R/H98V/L102E | ND ND ND | ND | 0/9 |
| A57F/S58N/R99C | ND ND ND | ND | 0/9 |
| S25H/T59R/L102H | ND ND ND | ND | 0/9 |
| S25D/R99S | 0.54 0.62 0.68 | 0.61 | 0/9 |
| R34P/A57Y/H98I | ND ND ND | ND | 3/9 (3.75) |
| L30H/S58R/T59N | 3.29 ND ND | 3.29 | 2/9 (3.86) |
| S25D/V29T/R34T | 0.34 0.50 0.26 | 0.37 | 0/9 |
| N35S/T59V/H98R | 1.50 1.36 1.52 | 1.46 | 1/9 (4.91) |
| S26A/Q27S/S58D | 2.48 2.51 2.38 | 2.45 | 1/9 (3.48) |
| Q27D/T59N/H98N | 1.51 1.54 1.67 | 1.57 | 1/9 (2.98) |
| K36R/S58K/S103W | ND 3.10 4.39 | 3.75 | 1/9 (3.25) |
| T59Q/Q96Y/Y97R | ND ND ND | ND | 7/9 (4.53) |
| R34F/N35A/N37P | 2.40 2.46 2.73 | 2.53 | 1/9 (5.34) |
| S33F/R34N/R99H | ND ND 5.61 | 5.61 | 3/9 (3.17) |
| N35A/Y97V/L102P | 1.06 1.25 1.29 | 1.20 | 1/9 (3.54) |
| R99T/L102D | 1.20 1.39 1.85 | 1.48 | 1/9 (3.66) |
| A40D/Q95T/Y97C | ND ND ND | ND | 2/9 (4.33) |
| N35A/A40C/L100R | ND ND ND | ND | 0/9 |
| S25Y/S38R/A40C | ND ND ND | ND | 1/9 (3.95) |
| S25M/W56P | ND ND ND | ND | 0/9 |
| S26W/S33C/N35K | ND ND ND | ND | 0/9 |
| S28N/W56N/S62Q | 0.42 0.55 0.41 | 0.46 | 4/9 (5.00) |
| R34H/W56T/A57H | 2.56 ND ND | 2.56 | 1/9 (3.47) |
| S26A/A57N/L102R | ND ND ND | ND | 1/9 (2.61) |
| E32P/S38N | 0.86 1.00 1.19 | 1.01 | 1/9 (3.11) |
| Q95N/R99T | ND ND ND | ND | 2/9 (4.48) |
| E32P/S58E/P101M | ND 3.78 ND | 3.78 | 2/9 (3.68) |
| K24P/L30M/P101I | ND ND ND | ND | 0/9 |
| R34A/R60V/S62K | 0.82 1.20 0.92 | 0.98 | 1/9 (3.08) |
| K24A/Y97L/H98A | ND ND ND | ND | 0/9 |
| S62R/H98R/P101C | 1.19 1.00 1.12 | 1.10 | 0/9 |
| Y31K/R99N/P101H | 4.19 ND ND | 4.19 | 0/9 |
| Q27I/V39D/E61K | 3.78 3.10 ND | 3.44 | 2/9 (3.91) |
| N35C/K36T/L102E | ND ND ND | ND | 0/9 |
| S62W/Q96N/L102R | 1.14 1.28 1.20 | 1.21 | 3/9 (4.62) |
| K24D/S25E/Q27S | 1.71 ND 3.00 | 2.35 | 0/9 |
| K24R/V29K/Q95I | ND ND ND | ND | 0/9 |
| L30W/K36T/S58Q | 1.15 1.11 1.32 | 1.19 | 0/9 |
| L30E/T59P/L100N | ND ND ND | ND | 1/9 (3.19) |
| Y31S/S58K/H98M | 1.34 1.29 1.06 | 1.23 | 0/9 |
| L30W/Q95A/S103H | 1.03 1.20 1.06 | 1.09 | 7/9 (4.26) |
| S25V/E32S/S103I | -0.01 0.28 0.10 | 0.12 | 3/9 (4.62) |
| S28Y/K36S | 1.80 1.99 1.97 | 1.92 | 0/9 |
| T59Y/L100G/S103P | ND ND ND | ND | 0/9 |
| V29C/L30A/Q96K | ND ND ND | ND | 1/9 (3.37) |
| A40D/W56S/Q95H | ND 3.54 ND | 3.54 | 3/9 (4.54) |

Empty control strains, which show no peptide, gave a signal in 18% of pairings with library AAYL50; the median was 4.19 and 95% of these signals were weaker than 2.99. No background was subtracted. For each scFv, signals with the empty controls are counted beside the result, with their mean in brackets.

Reference: Engelhart et al. 2022, doi:10.1038/s41597-022-01779-4. File: FLAb, binding data.